Assay results: patent US8877256B2, “Antimicrobial photo-stable coating composition” (Covalon Technologies Ltd., priority 2007, dated 2014)

Silver-pyrrolidone Carboxylic Acid Complex [silver-PCA]
maximum solubility in water: about 300 mM
